Tests used:
[1] = system: T1, tubulin colchicine binding site; assay: [3H]-colchicine competition-binding scintillation proximity assay; details: SPA, 0.03-100 μM
T1 construct: […]

[2] = system: MDA-MB-435/LCCMDR1 multidrug-resistant melanoma cells; assay: Cytotoxicity (SRB) assay, MDA-MB-435/LCCMDR1; format: cell-based; details: MDR melanoma line vs sensitive parent line

SMILES | colchicine site binding in words [1] | P-gp substrate / multidrug resistance in words [2]
COc1ccc(-c2nc(C(=O)c3ccc(F)cc3)c[nH]2)cc1 [12cb, (4-fluorophenyl)(2-(4-methoxyphenyl)-1H-imidazol-4-yl)methanone] | competitively bound to tubulin colchicine binding site | not substrates for P-gp
COc1cc(C(=O)c2c[nH]c(-c3ccc(C)cc3)n2)cc(OC)c1OC [12da, (2-(p-tolyl)-1H-imidazol-4-yl)(3,4,5-trimethoxyphenyl)methanone] | – | not substrates for P-gp

Reference: patent publication US11465987B2, “Compounds for treatment of cancer” (ONCTERNAL THERAPEUTICS, INC., priority 2012, dated 2022)
